# Only a part is listed here, and it is no random draw. Calls of active or inactive are those of the source.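 The calls were made as follows: active = inhibition above the mean inhibition of all tested compounds plus 3 SD (cut at about 17% in these data); inactive = the rest.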
# Target: Troponin I, cardiac muscle (Homo sapiens) + Troponin T, cardiac muscle (Homo sapiens) + Troponin C, slow skeletal and cardiac muscles (Homo sapiens) (UniProt P19429+P45379+P63316)
# Experiment: cardiac RTF calcium sensitivity inhibitors, primary screen, biochemical, IANBD-TnC fluorescence, EC70 calcium (AID 493244);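 also: assay run at fixed EC70 calcium of 1.6 mM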
# Conditions: IANBD-labeled cardiac RTF, Ca2+ fluorescence; at 7.15 µM; stronger effect = higher value
row,Structure (SMILES),inhibition
1,CP(=O)(Nc1ccc(SC(F)(F)F)cc1)Oc1ccccc1 (stereo unspecified),inactive: 5.24%
2,COc1ccccc1OP(C)(=O)Nc1c(C)cccc1C (stereo unspecified),inactive: 5.81%
3,CN1CCCCC1COC(=O)C1(O)c2ccccc2CCc2ccccc21 (stereo unspecified),inactive: 1.99%
4,CC1=C2N=C(C=C3N=C(C(C)=C4[N-][C@@](C)([C@@H]5N=C1[C@](C)(CCC(=O)NC[C@@H](C)OP(=O)([O-])O[C@H]1[C@@H](O)[C@@H](n6cnc7cc(C)c(C)cc76)O[C@@H]1CO)[C@H]5CC(N)=O)[C@@](C)(CC(N)=O)[C@@H]4CCC(N)=O)[C@@](C)(CC(N)=O)[C@@H]3CCC(N)=O)C(C)(C)[C@@H]2CCC(N)=O.[C-]#N.[Co+3],inactive: 1.19%
5,O=[N+]([O-])c1cc([N+](=O)[O-])c(Nc2nnnn2CCO)c([N+](=O)[O-])c1,inactive: -7.29%
6,CCOC(=O)C(CC)C1=NC(C)(C)Cc2ccccc21.O=[N+]([O-])c1cc([N+](=O)[O-])c(O)c([N+](=O)[O-])c1 (stereo unspecified),inactive: 5.24%
7,Cc1nc2ccc3ccccc3c2s1.O=[N+]([O-])c1cc([N+](=O)[O-])c(O)c([N+](=O)[O-])c1,inactive: -10.3%
8,O=[N+]([O-])c1cc([N+](=O)[O-])c(-c2cnn(-c3ccccc3)c2)c([N+](=O)[O-])c1,inactive: 6.37%
9,O=[N+]([O-])c1cc([N+](=O)[O-])c(-n2nnc3ccccc32)c([N+](=O)[O-])c1,inactive: -4.53%
10,CP(=O)(Nc1ccccn1)Oc1ccc(Cl)cc1 (stereo unspecified),inactive: 2.11%
11,CCOP(C)(=S)SCC(=O)NC(C)C(=O)O (stereo unspecified),inactive: -2.77%
12,CCOC(=O)c1ccc(NP(C)(=O)Oc2ccc(OC)cc2)cc1 (stereo unspecified),inactive: -7.98%
13,CP(=O)(NC(=O)Nc1ccccc1)Oc1ccccc1 (stereo unspecified),inactive: 5.89%
14,CCc1ccc(OP(C)(=O)N2CCN(c3ccc([N+](=O)[O-])cc3)CC2)cc1 (stereo unspecified),inactive: 2.36%
15,Cc1cc(C)cc(OP(C)(=O)Nc2ccc(SC(F)(F)F)cc2)c1 (stereo unspecified),inactive: -9.56%
16,Cc1cccc(C)c1OP(C)(=O)Nc1ccc(SC(F)(F)F)cc1 (stereo unspecified),inactive: 7.75%

row,Structure (SMILES),inhibition
1,CP(=O)(Oc1ccccc1)OC(c1ccccc1)C(F)(F)F (stereo unspecified),inactive: -10.6%
2,COc1ccccc1OP(C)(=O)Nc1ccccc1 (stereo unspecified),inactive: -1.94%
3,CP(=O)(Nc1ccccc1Br)Oc1ccccc1 (stereo unspecified),inactive: 2.09%
4,CP(=S)(Nn1cnnc1)Oc1ccccc1 (stereo unspecified),inactive: -1.39%
5,COc1ccccc1OP(C)(=O)Nc1cc(Cl)ccc1C (stereo unspecified),inactive: -11%
6,COc1ccc(OP(C)(=O)Nc2cccc(F)c2)cc1 (stereo unspecified),inactive: 2.57%
7,Cc1cc(C)cc(OP(C)(N)=O)c1 (stereo unspecified),inactive: 1.2%
8,CCOC(=O)c1ccc(NP(C)(=O)Oc2ccccc2)cc1 (stereo unspecified),inactive: 1.94%
9,COc1ccccc1OP(C)(=O)Nc1ccc(C)cc1 (stereo unspecified),inactive: -5.16%
10,Cc1ccc(NP(C)(=O)Oc2ccccc2)c(C)c1 (stereo unspecified),inactive: -1.37%
11,CC(C)(C)c1ccc(OP(C)(=O)Nc2ccc(SC(F)(F)F)cc2)cc1 (stereo unspecified),inactive: 0.5%
12,Cc1cccc(C)c1OP(C)(N)=O (stereo unspecified),inactive: 6.54%
13,O=[N+]([O-])c1ccc2c(c1)C=Nc1ccccc1O2,inactive: 3.11%
14,O=[N+]([O-])c1cc([N+](=O)[O-])c(Nc2cccnc2)c([N+](=O)[O-])c1,inactive: -14.2%
15,CCN(CC)CCCOC(=O)C(O)(c1ccccc1)c1ccccc1,inactive: 0.89%

# Reference: PubChem BioAssay AID493244 (The Scripps Research Institute Molecular Screening Center, 2011)
